Source: ChEMBL document CHEMBL1144419, “N-terminal fatty acylated His-dPhe-Arg-Trp-NH(2) tetrapeptides: influence of fatty acid chain length on potency and selectivity at the mouse melanocortin receptors and human melanocytes” (J Med Chem, 2005)

Chains of the proteins cited; added tags and fusions are not shown. Lines headed by an entry give the natural chain unless they say otherwise; changes in a name come on top.
UniProt Q01727: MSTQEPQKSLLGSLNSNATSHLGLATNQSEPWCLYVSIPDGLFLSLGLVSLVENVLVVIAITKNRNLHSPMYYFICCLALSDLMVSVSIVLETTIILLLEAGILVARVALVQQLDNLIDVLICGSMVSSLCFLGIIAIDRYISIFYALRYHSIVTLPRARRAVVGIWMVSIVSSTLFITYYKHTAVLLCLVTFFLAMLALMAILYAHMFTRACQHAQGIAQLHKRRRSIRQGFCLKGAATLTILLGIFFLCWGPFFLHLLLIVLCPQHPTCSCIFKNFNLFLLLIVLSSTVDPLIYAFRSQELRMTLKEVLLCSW

Target: Melanocyte-stimulating hormone receptor (Mus musculus, UniProt Q01727)
Test: In vitro agonist potency for Mouse Melanocortin 1 receptor
Assay type: functional

- EC50: 0.052 µM
Structure (SMILES): CC(=O)N[C@@H](Cc1cnc[nH]1)C(=O)N[C@H](Cc1ccccc1)C(=O)N[C@@H](CCCN=C(N)N)C(=O)N[C@@H](Cc1c[nH]c2ccccc12)C(N)=O
